dFosB activator = mouse delta FosB homodimer activation. purified delta FosB, TAMRA-CDK5 oligo fluorescence polarization; percent of positive-control signal above neutral wells. hit rate 0.99% among 340,000. activation, % at 25 µM;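 active means mean activation above about 17%, with every replicate also reaching it, limit read from the data, passing the limit was not always enough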
DYRK1A inh = inhibitors of rat Dyrk1A kinase; hit rate 0.43% among 310,000; inhibition, % at 12.5 µM; AID 504441; ADP-Glo luminescence, NFATc1 peptide; in the data active means inhibition above about 50%
CAL PDZ FP-1 = CAL PDZ (human) peptide binding inhibition; purified CAL PDZ, TMR-peptide fluorescence polarization, 1 h; AID 602252; inhibition, % at 24.9 µM; hit rate 0.92% among 300,000;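 active means mean inhibition of at least 30% with at least half of replicates also reaching 30%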
Yeast UUG start = yeast start codon fidelity modulation | S. cerevisiae UUG-firefly luciferase reporter, luminescence/redox ratio | activity score, % at 18.7 µM | hit rate 0.13% among 350,000 | AID 602363;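 active means replicate mean at a twofold rise or more, about +100% in these data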;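 further: firefly luciferase made from a UUG start codon reports start codon fidelity; reporter light over untreated wells divided by growth signal over untreated wells; some hits fall short of that in this replicate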
CDK5 inh = CDK5/p35 (human) kinase inhibition | AID 488839 | hit rate 0.01% among 330,000 | Q00535+Q15078 | Recombinant CDK5/p35, ADP-Glo luminescence, 60 min | inhibition, % at 10 µM;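 active means highest replicate inhibition of at least 50% and at least 75% of replicates reaching 50%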
CAL PDZ FP-2 = blocks peptide binding to human CAL PDZ domain | Q9HD26 | hit rate 0.02% among 330,000 | purified CAL PDZ, TMR-peptide fluorescence polarization, 1 h | inhibition, % at 20 µM;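 active means highest replicate inhibition of at least 40%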
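Material: tagged CAL PDZ protein CerCALP, purified; buffer or medium: sodium phosphate/NaCl buffer pH 7.4 with TCEP, IgG, Thesit; also added: fluorescent TMR peptide probe; schedule: 1 h incubation at room temperature before polarization reading; technique: fluorescence polarization from S- and P-plane intensities, G-factor corrected; control set: unlabelled peptide and DMSO controls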
A number is an active result; . = inactive; / = no result given. In the library only some 1.7% were active in any assay of this set; here they are far more common.

SMILES | dFosB activator | DYRK1A inh | CAL PDZ FP-1 | Yeast UUG start | CDK5 inh | CAL PDZ FP-2
COc1cccc(C(=O)NCCOc2cc(C)cc(C)c2)c1 | . | . | 38.4 | . | . | .
C=CCNC(=S)NNC(=O)c1ccc(C)c(Cl)c1 | . | . | 67.4 | . | . | .
CO[C@@H]1CN(C)C(=O)c2ccc(NC(=O)C3CCCC3)cc2OC[C@H](C)N(CCC(F)(F)F)C[C@@H]1C | / | / | / | . | / | /
COC(=O)C[C@H]1CC[C@@H]2[C@@H](COc3ccc(NC(=O)c4ccccc4OC)cc3C(=O)N2C)O1 | / | / | / | . | / | /
COc1ccccc1CNc1ccc2nnc(CCNC(=O)c3ccccc3)n2n1 | . | / | 54.4 | / | . | .
O=C(Nc1nc2n(n1)C(c1ccc(F)cc1)CC(c1ccccc1)N2)c1ccco1 (configuration not stated) | . | . | 38.1 | / | . | .
COc1cnc(-c2ccccn2)nc1N(C)C | . | . | 72.7 | / | . | .
COc1ccc(-c2c(NC(=O)C(C)C)n(C)c3ccccc3c2=O)cc1 | . | . | . | . | . | .
COc1ccc(-c2c(NC(C)=O)n(C)c3ccccc3c2=O)cc1 | . | . | 45.0 | . | . | .
CCCCC(=O)Nc1nn(CC(C)C)c2nc3ccccc3cc12 | . | . | 30.4 | . | . | .
CC(C)Cn1nc(NC(=O)C(C)(C)C)c2cc3ccccc3nc21 | . | . | / | / | . | .
O=C(O)CCC1(CCC(=O)O)CCCC(CCC(=O)O)(CCC(=O)O)C1=O | . | . | 79.9 | . | . | .
C[C@@H]1CN([C@@H](C)CO)C(=O)c2cc(NC(=O)Nc3ccc(C(F)(F)F)cc3)ccc2O[C@@H](C)CCCCO[C@H]1CN(C)S(=O)(=O)c1cccs1 | / | / | / | . | / | /
CC(=O)n1cc(/C=N/NC(=O)c2ccccc2Cl)c2ccccc21 | . | . | 68.2 | . | . | .
C[C@@H]1CCCCO[C@@H](CN(C)CC2CCCCC2)[C@H](C)CN([C@H](C)CO)C(=O)c2cc(NS(=O)(=O)c3ccccc3)ccc2O1 | / | / | / | . | / | /
COc1ccc(CCNC(=O)c2cccc3ccccc23)cc1OC | . | . | . | . | . | .
COc1ccc(CCNC(=O)c2cc3c(F)cccc3s2)cc1OC | . | . | 69.9 | . | . | .
CCCC(=O)n1nc(-c2ccc(C)cc2)nc1NCc1ccco1 | . | . | 80.6 | . | . | .
CCOCc1nnc(NC(=O)C2CC(=O)N(CCc3ccc(F)cc3)C2)s1 (configuration not stated) | . | . | . | . | . | .
CCOCCc1nnc(NC(=O)C2CC(=O)N(CCc3ccc(F)cc3)C2)s1 (configuration not stated) | . | . | 58.7 | . | . | .
CCN1C(=O)/C(=C\N(C(C)=O)c2ccccc2)OC1=S | . | / | . | . | . | .
CC(=O)N(/C=C1\SC(=S)N(c2ccccc2)C1=O)c1ccccc1 | . | . | 34.9 | . | . | .
COc1ccccc1NC(=O)C(=O)N/N=C(\C)CC(=O)Nc1ccccc1C(F)(F)F | . | . | 44.4 | . | . | .
CC(C)NC(=O)NS(=O)(=O)c1cnccc1NC1CC2CCC1C2 (configuration not stated) | . | . | 69.3 | . | . | .
O=C(NCC[C@@H]1CC[C@@H](NC(=O)C2CCCC2)[C@H](CO)O1)c1cc(Cl)cc(Cl)c1 | / | / | / | . | / | /
SMILES | dFosB activator | DYRK1A inh | CAL PDZ FP-1 | Yeast UUG start | CDK5 inh | CAL PDZ FP-2
Cc1cc(C)nc(S/C=C/C(=O)c2ccccc2F)n1 | . | . | 80.1 | / | . | .
Cc1cc(C)nc(NC(=S)NC(=O)c2ccccc2F)n1 | / | / | / | . | / | /
CCOC(=O)c1ccc(-n2c(C)nc3c(cnn3-c3ccc(Cl)cc3)c2=O)cc1 | . | . | . | . | . | .
CCOC(=O)c1ccc(-n2c(C)nc3c(cnn3-c3ccccc3Cl)c2=O)cc1 | . | . | 77.9 | . | . | .
COc1cc([N+](=O)[O-])ccc1NC(=O)NCC1CCN(Cc2ccc(Cl)cc2)CC1 | . | . | 45.5 | . | . | /
Cc1ccc(C)c(N(CC(=O)N2CCCC2)S(C)(=O)=O)c1 | . | . | 76.5 | . | . | .
Cc1ccc(C)c(N(CC(=O)N2CCCCCC2)S(C)(=O)=O)c1 | . | . | / | . | . | .
O=S(=O)(c1ccccc1)n1ccc2ccccc21 | . | . | 46.8 | . | . | .
COc1ccc(CCNS(=O)(=O)c2ccc(Br)cc2)cc1 | . | . | . | . | . | /
COc1ccc(S(=O)(=O)NCCc2ccncc2)cc1 | . | . | 63.0 | . | . | .

Screening data from PubChem.
